Target: T1, STAT3 (Mus musculus, UniProt P42227)
T1 construct: from tissue; host or cells: subcutaneous tumors formed by Ikkβf/f or IkkβΔ dih10 cells in C57BL/6 mice
Assay: STAT3 phosphorylation in lysates of dih10 tumors (immunoblot)
Format: in vivo
Text: FIG. 22. ROS-mediated SHP1/2 inhibition in IKKβ-deficient HCCs correlates with STAT3 activation and accelerated tumor growth. (A) Tumors derived from Ikkβ^f/f (f/f) and Ikkβ^Δ (Δ) dih10 cells were collected and lysed. Tumor lysates were immunoprecipitated with an anti-JAK2 antibody and examined for JAK2 tyrosine phosphorylation with PY20 antibody. Tumor lysates were also used for immunoblot analyses with the indicated antibodies. (B) SHP1 and SHP2 were immunoprecipitated from above tumor lysates and their phosphatase activities were measured (n=4; *: p<0.05). (C) Fresh frozen sections of HCCs from transplanted MUP-uPA mice were analyzed for superoxide accumulation by DHE staining. Fluorescence intensity in several fields was quantitated by ImageJ and relative average increases in fluorescent intensity are shown (n=3; *: p<0.01). […] (D) Tumors were collected from BHA treated and untreated mice, lysed and SHP1/2 phosphatase activities were measured. […] (F) Tumor volume was measured weekly (n=5; p<0.01, Δ/ctrl vs. Δ/BHA by one way ANOVA). […]
FIG. 30. […] Tumor volume was measured (n=5; p<0.05, f/f/vehicle vs. f/f/AG490; p<0.01, Δ/vehicle vs. Δ/AG490 by one way ANOVA). (B) After 6 weeks, tumors were removed, lysed and analyzed by immunoblotting with the indicated antibodies. […] Tumor volume was measured (n=5; p<0.05, f/f/vehicle vs. f/f/S3I-201; p<0.01, Δ/vehicle vs. Δ/S3I-201 by one way ANOVA). […]

Amino acid sequences for entries named in this document (tags omitted).
UniProt P42227, whole entry: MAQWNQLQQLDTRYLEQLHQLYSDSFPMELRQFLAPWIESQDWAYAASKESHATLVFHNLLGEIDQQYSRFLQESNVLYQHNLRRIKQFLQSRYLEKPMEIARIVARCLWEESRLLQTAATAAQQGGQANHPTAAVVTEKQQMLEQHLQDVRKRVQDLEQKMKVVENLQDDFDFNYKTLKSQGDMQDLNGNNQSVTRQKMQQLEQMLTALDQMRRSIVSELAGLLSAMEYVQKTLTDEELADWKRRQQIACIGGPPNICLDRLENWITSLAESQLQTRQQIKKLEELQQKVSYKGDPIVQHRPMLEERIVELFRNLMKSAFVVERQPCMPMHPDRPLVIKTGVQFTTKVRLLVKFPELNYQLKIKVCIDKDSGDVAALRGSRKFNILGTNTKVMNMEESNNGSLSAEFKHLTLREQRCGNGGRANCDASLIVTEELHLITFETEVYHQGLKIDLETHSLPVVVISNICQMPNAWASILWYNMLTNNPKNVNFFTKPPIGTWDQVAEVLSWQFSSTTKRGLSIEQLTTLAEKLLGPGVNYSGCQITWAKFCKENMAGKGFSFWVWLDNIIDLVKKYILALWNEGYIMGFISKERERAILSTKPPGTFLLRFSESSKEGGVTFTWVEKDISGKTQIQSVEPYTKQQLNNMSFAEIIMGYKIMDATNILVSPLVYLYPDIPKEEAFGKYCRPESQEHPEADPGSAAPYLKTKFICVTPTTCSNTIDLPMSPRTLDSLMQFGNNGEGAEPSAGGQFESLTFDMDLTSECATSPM

## Cc1ccc(S(=O)(=O)OCC(=O)Nc2ccc(C(=O)O)c(O)c2)cc1 [S3I-201]
  STAT3 activity in dih cell tumors: effective inhibition
S3I-201 5 mg/kg i.p. daily, tumors after 6 weeks
  STAT3 phosphorylation in tumors: inhibited STAT3 phosphorylation

Source: US20140086939A1, “COMPOSITIONS AND METHODS FOR DETECTING AND TREATING CANCER” (priority 2011, published 2014)
